# Source: patent publication US5069909A, “Transdermal administration of buprenorphine” (Cygnus Therapeutic Systems, priority 1990, dated 1991)
# Conditions: flow-through cells
structure (smiles),measurement,value
CCCCCCCCCC(=O)O,"skin flux from saturated solutions, comparison (in words)",better penetration enhancer than lauric acid
